Earlier results on one molecule are cited in US20130005759A1, “SMALL MOLECULE MODIFIERS OF MICRORNA MIR-122” (North Carolina State University, priority 2010, published 2013).

For the data set, the system named is miR-122. The conditions noted are these: literature reference 15; cited from earlier work.

B1: interferon β: currently the most common HCV therapeutic (together with interferon α) (protein, UniProt P01574 22-187, looked up)
Interferon beta: MSYNLLGFLQRSSNFQCQKLLWQLNGRLEYCLKDRMNFDIPEEIKQLQQFQKEDAALTIYEMLQNIFAIFRQDSSSTGWNETIVENLLANVYHQINHLKTVLEEKLEKEDFTRGKLMSSLHLKRYYGRILHYLKAKEYSHCAWTIVRVEILRNFYFINRLTGYLRN
For the molecule B1, the “down-regulation of miR-122” value is recorded as roughly 80%.
